Measured values published in PubChem BioAssay AID624094 (National Center for Advancing Translational Sciences (NCATS), 2012).
The entries are a selection whose mix differs from that of the whole data set. Inconclusive results are not listed. Activity calls are given as the source filed them. Calls come from the whole dose curve; as a rule, active = well fitted inhibition curve with a large enough effect; inconclusive = small, poorly fitted or top-dose-only effect; inactive = flat fitted curve, though single readings scatter.

By UniProt entry, the sequences of proteins in these tests, tags left out. Where a name states a change or a piece, a line headed by the entry shows the natural chain unless it says otherwise.
UniProt Q9HAZ1: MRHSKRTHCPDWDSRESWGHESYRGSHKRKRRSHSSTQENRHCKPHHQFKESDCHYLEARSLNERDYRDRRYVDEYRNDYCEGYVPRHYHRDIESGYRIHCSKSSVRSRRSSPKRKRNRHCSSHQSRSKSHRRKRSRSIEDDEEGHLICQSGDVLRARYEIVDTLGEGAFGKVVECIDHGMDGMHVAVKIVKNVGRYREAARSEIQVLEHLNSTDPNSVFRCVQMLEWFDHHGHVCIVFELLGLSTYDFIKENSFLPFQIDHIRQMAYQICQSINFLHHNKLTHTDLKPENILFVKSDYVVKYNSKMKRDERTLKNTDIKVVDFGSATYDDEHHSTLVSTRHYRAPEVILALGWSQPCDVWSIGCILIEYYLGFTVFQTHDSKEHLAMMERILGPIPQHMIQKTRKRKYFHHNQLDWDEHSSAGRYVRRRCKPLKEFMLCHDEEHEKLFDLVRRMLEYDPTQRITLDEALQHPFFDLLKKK

Biological target: Dual specificity protein kinase CLK4 (Homo sapiens) (UniProt Q9HAZ1)
Assay: Confirmation Assay for Inhibitors of Clk4 (Kinase-Glo Assay): KU probe
Conditions: recombinant Clk4, Kinase-Glo ATP luminescence
Procedure: NIH Molecular Libraries Probe Production Centers Network [MLPCN] NIH Chemical Genomics Center [NCGC] MLPCN Grant: 1R03MH084827-01 Assay Submitter (PI): Tom Misteli NCGC Assay Overview: Clk4 (Invitrogen, cat# PV3839) was assayed using ATP and the RS repeat peptide (AnaSpec cat # 61722) as substrates. Following the Clk4 reaction, the remaining ATP levels were detected using Promega Kinase-Glo technology wherein the remaining ATP from the kinase reaction is detected using Ultra-Glo luciferase and D-luciferin which generates a bioluminescence signal from the ATP. The positive control for the assay was TG003 (Sigma-Aldrich, cat# 300801-52-9) which has been described as an inhibitor of Clk 4[1].
NCGC Assay Protocol Summary: Two uL/well of substrate-buffer solution (100 uM RS peptide, 1 uM ATP, 25 mM Tris pH7.5, 10 mM MgCl2, 0.5 mM EGTA, 2.5 mM DTT, 0.01% Triton X-100 final concentration) was dispensed into 1536-well, assay plates (Greiner, solid white medium-binding plates) with Aurora Discovery BioRAPTR Flying Reagent Dispenser (FRD; Beckton-Dickenson). Using a Kalypsys pin tool equipped with a 1536-pin tool, 23 nL of compound solution was transferred to the assay plate. […] Luminescence was detected with the ViewLux plate reader (Perkin Elmer, Waltham, MA) after 5 min incubation using a 5 second exposure time and 2x binning.

In the case of `CCN1/C(=C/C(C)=O)Sc2ccc(OC)cc21`, the Potency was active: 46.3 nM.
